Laboratory results from US9890152B2 (Genentech, Inc., priority 2012, dated 2018).

Protein sequences, listed by entry. Tags and fused reporters are not part of them. Residues count along the entry.
UniProt P00533, 25-1210 T790M/L858R limits assumed: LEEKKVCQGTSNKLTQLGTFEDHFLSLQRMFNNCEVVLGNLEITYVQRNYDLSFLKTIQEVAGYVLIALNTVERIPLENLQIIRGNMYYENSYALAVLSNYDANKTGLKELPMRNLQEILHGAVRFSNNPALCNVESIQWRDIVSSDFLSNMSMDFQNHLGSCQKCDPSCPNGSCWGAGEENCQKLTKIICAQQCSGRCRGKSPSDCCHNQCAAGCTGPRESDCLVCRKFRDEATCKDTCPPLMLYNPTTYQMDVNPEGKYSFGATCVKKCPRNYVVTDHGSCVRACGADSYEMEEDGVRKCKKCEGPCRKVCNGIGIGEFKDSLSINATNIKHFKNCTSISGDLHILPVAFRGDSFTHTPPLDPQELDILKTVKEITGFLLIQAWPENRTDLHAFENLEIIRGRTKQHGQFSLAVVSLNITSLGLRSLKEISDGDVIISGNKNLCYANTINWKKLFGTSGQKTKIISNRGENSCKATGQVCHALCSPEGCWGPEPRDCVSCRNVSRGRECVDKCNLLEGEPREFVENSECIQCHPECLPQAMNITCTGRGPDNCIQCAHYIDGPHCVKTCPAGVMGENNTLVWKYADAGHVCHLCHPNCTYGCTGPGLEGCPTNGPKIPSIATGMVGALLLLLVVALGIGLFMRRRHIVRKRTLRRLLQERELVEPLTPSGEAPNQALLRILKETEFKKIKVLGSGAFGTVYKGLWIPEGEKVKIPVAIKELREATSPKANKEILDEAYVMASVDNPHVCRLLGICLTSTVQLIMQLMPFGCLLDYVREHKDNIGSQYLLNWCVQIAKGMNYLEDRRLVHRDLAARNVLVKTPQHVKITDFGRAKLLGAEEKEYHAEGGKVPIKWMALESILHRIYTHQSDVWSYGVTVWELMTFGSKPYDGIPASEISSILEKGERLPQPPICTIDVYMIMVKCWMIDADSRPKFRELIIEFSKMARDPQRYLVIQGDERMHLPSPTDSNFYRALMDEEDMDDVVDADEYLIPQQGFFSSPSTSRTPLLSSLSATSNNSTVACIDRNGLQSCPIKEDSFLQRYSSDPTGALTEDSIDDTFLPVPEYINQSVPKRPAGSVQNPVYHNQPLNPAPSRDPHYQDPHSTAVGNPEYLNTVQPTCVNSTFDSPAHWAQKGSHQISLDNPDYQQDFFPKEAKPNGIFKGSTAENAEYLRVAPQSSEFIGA

Each molecule was assayed against EGFR T790M L858R (Homo sapiens, UniProt P00533, L858R/T790M) (assay: biochemical). Settings: EGFR(T790M/L858R) Ki (μM), 5 μM ATP, 30 min, room temperature; apparent Ki (Morrison) converted by Cheng-Prusoff, Km of ATP 1.3 μM.

SMILES | Ki
C[C@@H](O)c1nc2cnc(Nc3ccnc(-c4cnn(S(=O)(=O)C5CC5)c4)n3)cc2n1[C@H](C)C(F)(F)F [Example 540, (R)-1-[(R)-6-[2-(1-Cyclopropanesulfonyl-1H-pyrazol-4-yl)pyrimidin-4-ylamino]-1-(2,2,2-trifluoro-1-methyl-ethyl)-1H-imidazo[4,5-c]pyridin-2-yl]ethanol] | 0.00149 µM
CC[C@@H](C)n1c([C@@H](C)O)nc2cnc(Nc3ccnc(-c4cnn(S(=O)(=O)C5CC5)c4)n3)cc21 [Example 541, (R)-1-{1-((R)-sec-Butyl)-6-[2-(1-cyclopropanesulfonyl-1H-pyrazol-4-yl)pyrimidin-4-ylamino]-1H-imidazo[4,5-c]pyridin-2-yl}ethanol] | 0.00217 µM
C[C@@H](O)c1nc2cnc(Nc3ccnc(N4CCC(O)C(F)C4)n3)cc2n1[C@H](C)C(F)(F)F (stereo partly drawn) [Example 542, 3-Fluoro-1-{4-[2-((R)-1-hydroxyethyl)-1-((R)-2,2,2-trifluoro-1-methylethyl)-1H-imidazo[4,5-c]pyridin-6-ylamino]pyrimidin-2-yl}-piperidin-4-ol] | 0.0174 µM
Cc1nc2cnc(Nc3ccnc(N4CCN(C(C)(C)C(N)=O)CC4)n3)cc2n1C(C)C [Example 544, 2-{4-[4-(1-Isopropyl-2-methyl-1H-imidazo[4,5-c]pyridin-6-ylamino)pyrimidin-2-yl]piperaziN-1-yl}isobutyramide] | 0.787 µM
Cc1nc2cnc(Nc3ccnc(N4CCC(S(C)(=O)=O)CC4)n3)cc2n1C(C)C [Example 545, (1-Isopropyl-2-methyl-1H-imidazo[4,5-c]pyridin-6-yl)-[2-(4-methanesulfonylpiperidin-1-yl)pyrimidin-4-yl]amine] | 0.0608 µM
CSC1CCN(c2nccc(Nc3cc4c(cn3)nc(C)n4C(C)C)n2)CC1 [Example 546, (1-Isopropyl-2-methyl-1H-imidazo[4,5-c]pyridin-6-yl)-[2-(4-methylsulfanylpiperidin-1-yl)pyrimidin-4-yl]amine] | 0.0239 µM
Cc1nc2cnc(Nc3ccnc(N4CCC(S(N)(=O)=O)CC4)n3)cc2n1C(C)C [Example 547, 1-[4-(1-Isopropyl-2-methyl-1H-imidazo[4,5-c]pyridin-6-ylamino)pyrimidin-2-yl]piperidine-4-sulfonic acid amide] | 0.108 µM
Cc1nc2cnc(Nc3ccnc(N4CC(S(C)(=O)=O)C4)n3)cc2n1C(C)C [Example 548, (1-Isopropyl-2-methyl-1H-imidazo[4,5-c]pyridin-6-yl)-[2-(3-methanesulfonylazetidin-1-yl)pyrimidin-4-yl]amine] | 0.347 µM
Cc1nc2cnc(Nc3ccnc(N4CCC(OC(F)F)CC4)n3)cc2n1C(C)C [Example 549, [2-(4-Difluoromethoxypiperidin-1-yl)pyrimidin-4-yl]-(1-isopropyl-2-methyl-1H-imidazo[4,5-c]pyridin-6-yl)amine] | 0.0347 µM
Cc1nc2cnc(Nc3ccnc(N4C[C@H]5C[C@@H](O)C[C@H]5C4)n3)cc2n1C(C)C [Example 550, (3aR,5R,6aS)-2-[4-(1-Isopropyl-2-methyl-1H-imidazo [4,5-c]pyridin-6-ylamino)pyrimidin-2-yl]octahydro-cyclopenta[c]pyrrol-5-ol] | 0.161 µM
CO[C@@H]1C[C@@H]2CN(c3nccc(Nc4cc5c(cn4)nc(C)n5C(C)C)n3)C[C@@H]2C1 [Example 551, 1-Isopropyl-N-(2-((3aR,5r,6aS)-5-methoxyhexahydrocyclopenta [c]pyrrol-2(1H)-yl)pyrimidin-4-yl)-2-methyl-1H-imidazo[4,5-c]pyridin-6-amine] | 0.0979 µM
Cc1nc2cnc(Nc3ccnc(NCC4(C(N)=O)CC4)n3)cc2n1C(C)C [Example 552, 1-{[4-(1-Isopropyl-2-methyl-1H-imidazo[4,5-c]pyridin-6-ylamino)pyrimidin-2-ylamino]methyl}cyclopropane carboxylic acid amide] | 0.0343 µM
Cc1nc2cnc(Nc3ccnc(N4CCC(S(=O)(=O)C(C)C)CC4)n3)cc2n1C(C)C [Example 553, (1-Isopropyl-2-methyl-1H-imidazo[4,5-c]pyridin-6-yl)-{2-[4-(propane-2-sulfonyl)piperidin-1-yl]pyrimidin-4-yl}amine] | 0.357 µM
CC(C)n1c(CO)nc2cnc(Nc3ccnc(N4CCC(S(=O)(=O)C(C)C)CC4)n3)cc21 [Example 554, (1-Isopropyl-6-{2-[4-(propane-2-sulfonyl)piperidin-1-yl]pyrimidin-4-ylamino}-1H-imidazo[4,5-c]pyridin-2-yl)methanol] | 0.317 µM
Cc1nc2cnc(Nc3ccnc(-n4cnc(S(=O)(=O)NC5CC5)c4)n3)cc2n1C(C)C [Example 555, 1-[4-(1-Isopropyl-2-methyl-1H-imidazo[4,5-c]pyridin-6-ylamino)pyrimidin-2-yl]-1H-imidazole-4-sulfonic acid cyclopropylamide] | 0.135 µM
CCNc1nc2cnc(Nc3ccnc(-c4cnn(S(=O)(=O)C5CC5)c4)n3)cc2n1C(C)C [Example 556] | 0.00347 µM

SMILES | Ki
CC(C)n1c(COCCO)nc2cnc(Nc3ccnc(-c4cnn(S(=O)(=O)C5CC5)c4)n3)cc21 [Example 557, 2-{6-[2-(1-Cyclopropanesulfonyl-1H-pyrazol-4-yl)pyrimidin-4-ylamino]-1-isopropyl-1H-imidazo[4,5-c]pyridin-2-ylmethoxy}ethanol] | 0.0127 µM
CC(C)n1c(CC(F)(F)F)nc2cnc(Nc3ccnc(-c4cnn(S(=O)(=O)C5CC5)c4)n3)cc21 [Example 558, [2-(1-Cyclopropanesulfonyl-1H-pyrazol-4-yl)-pyrimidin-4-yl]-[1-isopropyl-2-(2,2,2-trifluoro-ethyl)-1H-imidazo[4,5-c]pyridin-6-yl]amine] | 0.0127 µM
COC1(CO)CCN(c2nccc(Nc3cc4c(cn3)nc(CO)n4C(C)C)n2)CC1 [Example 559, {6-[2-(4-Hydroxymethyl-4-methoxypiperidin-1-yl)pyrimidin-4-ylamino]-1-isopropyl-1H-imidazo[4,5-c]pyridin-2-yl}methanol] | 0.0426 µM
COC(=O)C(C)(C)CNc1nccc(Nc2cc3c(cn2)nc(CO)n3C(C)C)n1 [Example 560, 3-[4-(2-Hydroxymethyl-1-isopropyl-1H-imidazo[4,5-c]pyridin-6-ylamino)pyrimidin-2-ylamino]-2,2-dimethylpropionic acid methyl ester] | 1.03 µM
CC(C)n1c([C@@H](C)O)nc2cnc(Nc3ccnc(-c4cnn(S(=O)(=O)C5CC5)c4)n3)cc21 [Example 561, (R)-1-{6-[2-(1-Cyclopropanesulfonyl-1H-pyrazol-4-yl)pyrimidin-4-ylamino]-1-isopropyl-1H-imidazo[4,5-c]pyridin-2-yl}ethanol] | 0.00216 µM
CC(C)n1c([C@H](C)O)nc2cnc(Nc3ccnc(-c4cnn(S(=O)(=O)C5CC5)c4)n3)cc21 [Example 562, (S)-1-{6-[2-(1-Cyclopropanesulfonyl-1H-pyrazol-4-yl)pyrimidin-4-ylamino]-1-isopropyl-1H-imidazo[4,5-c]pyridin-2-yl}ethanol] | 0.00834 µM
CC(C)n1c(C(C)(C)O)nc2cnc(Nc3ccnc(-c4cnn(S(=O)(=O)C5CC5)c4)n3)cc21 [Example 563, 2-{6-[2-(1-Cyclopropanesulfonyl-1H-pyrazol-4-yl)pyrimidin-4-ylamino]-1-isopropyl-1H-imidazo[4,5-c]pyridin-2-yl} propan-2-ol] | 0.0125 µM
CC(C)n1c(C2CC2)nc2cnc(Nc3ccnc(-c4cnn(S(=O)(=O)C5CC5)c4)n3)cc21 [Example 564, [2-(1-Cyclopropanesulfonyl-1H-pyrazol-4-yl)-pyrimidin-4-yl]-(2-cyclopropyl-1-isopropyl-1H-imidazo[4,5-c]pyridin-6-yl)amine] | 0.00307 µM
CC(C)n1c([C@H](C)N)nc2cnc(Nc3ccnc(-c4cnn(S(=O)(=O)C5CC5)c4)n3)cc21 [Example 567, [2-((S)-1-Aminoethyl)-1-isopropyl-1H-imidazo[4,5-c]pyridin-6-yl]-[2-(1-cyclopropanesulfonyl-1H-pyrazol-4-yl)pyrimidin-4-yl]amine] | 0.0623 µM
CC(C)n1c([C@@H](C)N)nc2cnc(Nc3ccnc(-c4cnn(S(=O)(=O)C5CC5)c4)n3)cc21 [Example 568, [2-((R)-1-Aminoethyl)-1-isopropyl-1H-imidazo[4,5-c]pyridin-6-yl]-[2-(1-cyclopropanesulfonyl-1H-pyrazol-4-yl)pyrimidin-4-yl]amine] | 0.0622 µM
CC(C)n1c([C@H](O)CO)nc2cnc(Nc3ccnc(-c4cnn(S(=O)(=O)C5CC5)c4)n3)cc21 [Example 569, (S)-1-{6-[2-(1-Cyclopropanesulfonyl-1H-pyrazol-4-yl)pyrimidin-4-ylamino]-1-isopropyl-1H-imidazo[4,5-c]pyridin-2-yl}ethane-1,2-diol] | 0.00476 µM
C[C@H](n1c(CO)nc2cnc(Nc3ccnc(-c4cnn(S(=O)(=O)C5CC5)c4)n3)cc21)C(F)(F)F [Example 571, [6-[2-(1-Cyclopropanesulfonyl-1H-pyrazol-4-yl)pyrimidin-4-ylamino]-1-((S)-2,2,2-trifluoro-1-methyl-ethyl)-1H-imidazo[4,5-c]pyridin-2-yl]methanol] | 0.00153 µM
CC(C)n1c(CO)nc2cnc(Nc3ccnc(C4=CCOCC4)n3)cc21 [Example 573, {6-[2-(3,6-Dihydro-2H-pyran-4-yl)pyrimidin-4-ylamino]-1-isopropyl-1H-imidazo[4,5-c]pyridin-2-yl}methanol] | 0.235 µM
CC(C)n1c(CO)nc2cnc(Nc3ccnc(C4CCOCC4)n3)cc21 [Example 574, {1-Isopropyl-6-[2-(tetrahydropyran-4-yl)pyrimidin-4-ylamino]-1H-imidazo[4,5-c]pyridin-2-yl}methanol] | 0.65 µM
Cc1nc2cnc(Nc3ccnc(C4=CCOC4)n3)cc2n1C(C)C [Example 575, [2-(2,5-Dihydrofuran-3-yl)pyrimidin-4-yl]-(1-isopropyl-2-methyl-1H-imidazo[4,5-c]pyridin-6-yl)amine] | 0.258 µM
CNC(=O)c1ccc(-c2nccc(Nc3cc4c(cn3)nc(C)n4C(C)C)n2)cn1 [Example 577, 5-[4-(1-Isopropyl-2-methyl-1H-imidazo[4,5-c]pyridin-6-ylamino)pyrimidin-2-yl]pyridine-2-carboxylic acid methylamide] | 0.514 µM
